Experimental data from patent US10322132B2, “Prevention or treatment of uratic or gouty diseases” (SHANTON PHARMA CO., LTD., priority 2015, dated 2019).

Amino acid sequences for entries named in this document (tags omitted). A change or cut given only in a name is not applied to a line headed by its entry.
UniProt Q96S37: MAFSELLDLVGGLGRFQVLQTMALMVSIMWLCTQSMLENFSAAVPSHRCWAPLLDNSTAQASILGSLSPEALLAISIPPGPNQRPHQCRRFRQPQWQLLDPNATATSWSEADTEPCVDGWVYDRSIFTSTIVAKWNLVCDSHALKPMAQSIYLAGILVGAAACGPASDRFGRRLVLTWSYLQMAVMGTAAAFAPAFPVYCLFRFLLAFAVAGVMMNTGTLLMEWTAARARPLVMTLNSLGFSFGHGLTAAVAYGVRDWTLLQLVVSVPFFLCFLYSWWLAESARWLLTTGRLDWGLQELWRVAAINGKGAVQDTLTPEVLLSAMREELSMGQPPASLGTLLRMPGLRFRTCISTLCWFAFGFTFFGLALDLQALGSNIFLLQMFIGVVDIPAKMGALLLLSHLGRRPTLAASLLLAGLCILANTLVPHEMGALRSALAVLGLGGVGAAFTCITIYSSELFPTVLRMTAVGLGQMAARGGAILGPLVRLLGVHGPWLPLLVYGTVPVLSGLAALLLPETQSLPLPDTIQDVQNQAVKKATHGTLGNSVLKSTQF

Molecular target: T1, human urate transporter 1 (hURAT1) (Homo sapiens, UniProt Q96S37)
T1 construct: expressed in transfected cells; host or cells: HEK-293T
Assay: Uptake of 14C-labeled uric acid in hURAT1 transfected cells
Format: cell-based
Conditions: 14C uric acid uptake, hURAT1-transfected HEK-293T cells, 5 min at 37° C.; read-out: IC50 (μM), inhibition of hURAT1 activity
Description: The compounds were prepared into the stock solutions (5 mM) with dimethyl sulfoxide (DMSO). This experiment involved 8 concentrations in total. The final concentrations were 5000 nM, 1250 nM, 312.5 nM, 78.1 nM, 19.5 nM, 4.9 nM, 1.2 nM and 0.3 nM, respectively.
2. Preparation of buffers: chlorine-free HBSS buffer (125 mM sodium gluconate, 4.8 mM potassium gluconate, 1.3 mM calcium gluconate, 1.2 mM KH2PO4, 1.2 mM MgSO4, 5.6 mM glucose, 25 mM 4-hydroxyethylpiperazine ethanesulfonic acid (HEPES) (pH 7.4)); lysis buffer (100 mM NaOH)
3. Transfected cells stably expressing human urate transporter 1 (hURAT1) were obtained by: placing human embryonic kidney cells (HEK-293T) in a cell culture plate containing complete medium, incubating the cells for 24 h at 37° C. in 5% CO2, rinsing the cells with phosphate buffered saline (PBS) followed by trypsin digestion to prepare a suspension containing single cells; placing 8×10^6 cells a cell culture plate, adding dropwise TransIT-293 Reagent:DNA complexes (1.5 ml of Opti-MEM I Reduced-Serum Medium, 15 g of plasmid DNA, and 45 μL of TransIT-293 Reagent were mixed uniformly and then incubated at room temperature for 30 min) to different areas of the cell culture plate, gently shaking the cell culture plate to homogeneously distribute the TransIT-293 Reagent:DNA complexes, and incubating the cells for 48 h at 37° C. in 5% CO2.
4. […]

IC50: > 5 µM
SMILES: O=C(O)CSc1nnc(Br)n1-c1ccc(C2CC2)c2ccccc12 [lesinurad, 2-[[5-bromo-4-(4-cyclopropyl-1-naphthyl)-4H-1,2,4-triazol-3-yl]thio] acetic acid, reference compound]
